Values quoted from earlier work as cited in patent publication US20140105970A1, “ADJUVANT AND ANTIGEN PARTICLE FORMULATION” (published 2014).
This is a selection: effects in other tests are not listed, and their absence says nothing.

Settings: colour change from colorless to coloured form

SMILES	pH Change (pH range of colour change)
O=[N+]([O-])c1cc([N+](=O)[O-])cc([N+](=O)[O-])c1	12.0-14.0 pH
Cc1c([N+](=O)[O-])cc([N+](=O)[O-])cc1[N+](=O)[O-]	11.5-13.0 pH
